ChEMBL document CHEMBL1147176, “Synthesis of S-dialkylarsino-3-mercapto-1,2-propanediols and evaluation of their anticancer activity” (2007)

Key:
SK-MEL-28 = assay: Anticancer activity against human SK-MEL-28 cells assessed as growth inhibition; format: functional
In short: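 NCI in vitro disease-oriented human tumor cell screen, about 60 lines. Growth inhibition read as pGI50, the -log of the molar concentration inhibiting 50% net cell growth. A mean graph midpoint is the arithmetic mean over all tested lines. Where the effect was not reached within the concentration interval, the highest tested concentration was used.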

SNB-75 = assay: Anticancer activity against human SNB75 cells assessed as growth inhibition; format: functional, cell-based
SK-MEL-2 = assay: Anticancer activity against human SK-MEL-2 cells assessed as growth inhibition; format: functional, cell-based
MDA-MB-231 = assay: Anticancer activity against human MDA-MB231/ATCC cells assessed as growth inhibition; format: functional, cell-based

| SMILES | LC50 (SK-MEL-28) [µM] | LC50 (SNB-75) [µM] | LC50 (SK-MEL-2) [µM] | LC50 (MDA-MB-231) [µM] |
| --- | --- | --- | --- | --- |
| CC[As](CC)SCC(O)CO (configuration not stated) | 38.9 | – | – | – |
| C[As](C)SCC(O)CO (configuration not stated) | 5.5 | – | – | – |
| CC(=O)OCC(CS[As](C)C)OC(C)=O (configuration not stated) | 58.9 | 40.7 | < 100 | 2.63 |
| CCC[As](CCC)SCC(O)CO (configuration not stated) | 0.646 | – | – | – |
